Bioassay records: PubChem, Broad Institute
MITF TRPM1 inh – MITF TRPM1 promoter inhibition in SK-MEL-5 cells; actives 0.83% (n = 330,000); SK-MEL-5 TRPM1 promoter luciferase, 24 h; inhibition, % at 12.5 µM;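 active = mean inhibition across replicates of 60% or more, whatever share of single replicates reaches that level; inconclusive = some that reach 60%, reason not given; inactive = mean inhibition across replicates below 60%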
miR-122 sensor – miR-122 inhibition in Huh7 cells. Huh7 miR-122 Renilla luciferase sensor, 48 h; neutral wells = 0, positive control = 100. activation (reporter increase), % at 12.5 µM. actives 0.3% (n = 340,000);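 active = mean replicate activation score at least 90 and every replicate individually at or above 90; inconclusive = only one of the two criteria met; inactive = neither criterion met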;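 note: higher luciferase means less miR-122 activity so hits act as miR-122 inhibitors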
MITF act – MITF TRPM1 promoter activation in melanoma cells. SK-MEL-5 TRPM1-promoter luciferase, 24 h; % of positive control, neutral wells = 0. activation, % at 12.5 µM. actives 0.75% (n = 300,000). AID 588334;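 active = mean activation of at least 80% with every replicate also reaching 80%; inconclusive = mean reaches 80% but some replicate falls short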
UUG fidelity – modulators of start codon recognition fidelity in yeast; activity score, % at 18.7 µM; actives 0.13% (n = 350,000); S. cerevisiae UUG-firefly luciferase reporter, luminescence/redox ratio;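 active = replicate mean at a twofold rise or more, about +100% in these data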;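 note: firefly luciferase made from a UUG start codon reports start codon fidelity; reporter light over untreated wells divided by growth signal over untreated wells; some hits fall short of that in this replicate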
Wnt bcat act – Wnt/beta-catenin pathway activation; Wnt/beta-catenin reporter cell assay, activator, plate reader; activation, % at 9.35 µM; actives 1.2% (n = 300,000); in the data active = activation above about 30%, passing the limit was not always enough; inconclusive = no clear call, values can overlap the other calls
PGC1a acetyl inh – lowers PGC1a acetylation signal in U2OS cells; AlphaScreen anti-acetyl-lysine; with virally co-expressed GCN5 acetyltransferase; inhibition, % at 15.6 µM; actives 0.17% (n = 350,000); AID 651687;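 active = every replicate shows inhibition of at least 40%; inconclusive = mean inhibition at least 40% but some replicate below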
Hits are given with their value; n = inactive; u = inconclusive; x = no result. Most compounds without a hit are left out; they make up all but 2.1% or so of the library.

SMILES	MITF TRPM1 inh	miR-122 sensor	MITF act	UUG fidelity	Wnt bcat act	PGC1a acetyl inh
O=c1cc(-c2ccsc2)oc2ccccc12	n	x	n	n	n	x
CN(C)c1ccc(-c2ccc3oc(-c4ccsc4)cc(=O)c3c2)cn1	n	n	124.4	n	38.1	x
O=C(CN1CCOCC1)NCC[C@@H]1CC[C@@H](NC(=O)c2ccc3c(c2)OCO3)[C@H](CO)O1	x	x	x	n	x	n
C[C@@H]1CCCCO[C@H](CN(C)S(=O)(=O)c2cn(C)cn2)[C@@H](C)CN([C@@H](C)CO)C(=O)c2cc(NC(=O)C3CCCCC3)ccc2O1	x	n	x	n	x	x
C[C@H]1CN([C@@H](C)CO)C(=O)Cc2cc(NC(=O)Cn3cnnn3)ccc2O[C@H]1CN(C)C(=O)Nc1ccccc1	x	n	x	n	x	n
C/C(=N\NC(=O)COc1ccccc1-c1ccccc1)c1cccnc1	n	x	n	x	n	x
C/C(=N\NC(=O)COc1ccccc1-c1ccccc1)c1ccccn1	83.9	n	n	n	n	n
CC(C)n1c(=S)[nH]c2cc(Cl)ccc21	n	x	n	x	n	69.1
C[C@H]1CN([C@@H](C)CO)C(=O)c2cccc(NC(=O)c3cnccn3)c2O[C@@H]1CN(C)S(C)(=O)=O	x	n	x	n	x	n
C[C@@H]1CN([C@@H](C)CO)C(=O)c2cc(NC(=O)CCCN(C)C)ccc2O[C@H]1CN(C)Cc1ccc(Oc2ccccc2)cc1	x	n	x	x	x	n
N/C(=N\OC(=O)c1ccco1)c1cccc(Br)c1	n	n	n	n	50.3	n
CC1CCN(c2nc3ccc(C(=O)O)cc3s2)CC1	89.9	n	n	n	x	n
CC1CCN(c2nc3ccc(C(=O)NCCCN4CCCCC4)cc3s2)CC1	n	n	n	n	n	n
Nc1ccc(-c2nc3ccc(C(=O)O)cc3s2)cc1	114.7	x	n	x	n	x
COc1ccc2[nH]c3c4c(ccc3c2c1)C(=O)C=CC4=O	79.4	n	n	n	n	n
C[C@H]1CN([C@@H](C)CO)C(=O)c2cccc(NS(=O)(=O)c3cccs3)c2O[C@@H]1CN(C)Cc1ccc(C(=O)Nc2ccccc2N)cc1	x	x	x	x	x	n
O=c1c2cc([N+](=O)[O-])ccc2sn1-c1ccccc1	x	n	x	n	n	x
N#Cc1c2ccc([N+](=O)[O-])cc2[n+]([O-])n1-c1ccccc1	89.9	n	n	n	n	n
COc1ccc(C[C@H]2CN3C(=NC[C@@H]3Cc3ccccc3)N2CCNC(=O)CCC2CCCCC2)cc1	97.8	n	n	n	n	n
COc1ccc(C(=O)c2c[nH]c(C(=O)NCCCn3ccnc3)c2)cc1	n	n	n	n	39.7	x
c1ccc(-c2cnc(-c3ccccc3)nn2)cc1	n	x	n	n	n	x
c1ccc(-c2cnc(-c3ccccn3)nn2)cc1	n	n	n	n	46.0	n
O=S(=O)(NCCc1ccncc1)c1cc(Br)ccc1F	n	123.5	n	n	n	n
COCC(=O)Nc1ccc2c(c1)[C@@H]1C[C@@H](CC(=O)NCc3ccc(OC)cc3)O[C@H](CO)[C@@H]1O2	x	n	x	n	x	n
Cn1c(-c2ccccc2F)cc2onc(-c3ccccc3)c2c1=O	n	n	n	n	n	x
SMILES	MITF TRPM1 inh	miR-122 sensor	MITF act	UUG fidelity	Wnt bcat act	PGC1a acetyl inh
Cn1c(-c2ncc(F)cc2F)cc2onc(-c3c(F)cccc3Cl)c2c1=O	n	n	87.5	n	39.8	n
COc1ccc(CC(=O)N2CCCC(C)C2)cc1 (stereo not given)	n	n	n	n	n	n
Cc1ccc(/C=C/C(=O)N2CCCC(C)C2)cc1 (stereo not given)	n	n	87.9	n	n	n
CC1CCCN(C(=O)Cc2ccc(F)cc2)C1 (stereo not given)	n	n	x	n	n	75.3
CCOC(=O)C1CCCN(C(=O)/C=C/c2ccc(Cl)cc2)C1 (stereo not given)	n	x	n	x	n	x
CC(C)(C)c1ccc(/C=C/C(=O)N2CCCCC2)cc1	n	x	101.2	n	33.2	x
COc1ccc(NC(=O)N(C)C[C@@H]2Oc3ccc(NC(=O)C4CCCCC4)cc3C(=O)N([C@H](C)CO)C[C@H]2C)cc1	x	n	x	n	x	n
C[C@@H]1CN([C@@H](C)CO)C(=O)c2cccc(NC(=O)c3ccncc3)c2O[C@H]1CN(C)CC1CCCCC1	x	n	x	n	x	x
Cc1ccc2c(COC(=O)C34CC5CC(CC(C5)C3)C4)cc(=O)oc2c1	n	n	102.9	n	x	n
Cc1ccc2c(COC(=O)c3ccccc3Cl)cc(=O)oc2c1	n	n	180.8	n	n	n
Cc1ccc2c(COC(=O)c3ccccc3Br)cc(=O)oc2c1	n	n	118.0	n	n	n
C=CC[C@@]1(C(=O)OC)N=C(c2ccc(OCCCO)cc2)O[C@@H]1c1ccccc1	x	x	x	n	x	x
CCN(CC)CCCN=C1N[C@@H](c2cccc(F)c2)C(C(=O)OC)=C(C)N1Cc1ccccc1	94.5	n	n	n	n	n
COC(=O)C1=C(C)N(Cc2ccccc2)C(=NCc2cccc(Cl)c2)N[C@H]1c1ccccc1	n	x	n	n	x	x
COC(=O)C1=C(C)N(Cc2ccccc2)C(=NCc2ccccc2)N[C@H]1c1ccccc1	82.7	n	n	n	n	n
O=C(c1ccc(F)cc1)c1cc2ccccc2o1	n	n	u	n	65.3	n
O=C(c1ccccc1)c1cc2ccccc2o1	n	n	108.4	n	n	n
[2H]C(CCOS(N)(=O)=O)c1ccc(C(C)(C)C)cc1 (stereo not given)	83.4	n	n	n	n	n
NS(=O)(=O)OCCCc1ccccc1	n	x	n	n	n	x
C[C@H]1CN([C@@H](C)CO)S(=O)(=O)c2ccc(C#CC3CCCC3)cc2O[C@H]1CN(C)C(=O)Cc1ccccc1	x	n	x	n	x	n
COc1ccc(NS(=O)(=O)c2csc(C(N)=O)c2)cc1	n	x	n	n	n	n
COc1cc(NS(=O)(=O)c2csc(C(N)=O)c2)cc(OC)c1	n	99.3	n	n	n	n
Cc1cccc(NS(=O)(=O)c2csc(C(N)=O)c2)c1	n	110.6	n	n	n	n
Cc1ccc(NCc2nc3ccccc3n2C)c(C)c1	n	n	n	n	39.7	x
C[C@H](NC(=O)C[C@@H]1C[C@H]2c3cc(NC(=O)CC4CC4)ccc3O[C@H]2[C@H](CO)O1)c1ccccc1	x	n	x	n	x	n
SMILES	MITF TRPM1 inh	miR-122 sensor	MITF act	UUG fidelity	Wnt bcat act	PGC1a acetyl inh
Cc1ccc(CCC(=O)Nc2ccc(Cl)cc2)o1	n	n	x	n	n	71.7
CCOc1ccccc1NC(=O)c1ccc(C(=O)Nc2ccccc2OCC)nc1	n	x	x	n	n	x
CCOc1ccccc1NC(=O)c1nc(S(=O)(=O)Cc2ccccc2)ncc1Cl	78.3	n	n	n	n	n
COc1ccccc1NC(=O)c1nc(S(=O)(=O)Cc2ccccc2)ncc1Cl	90.7	n	n	n	n	n
CCS(=O)(=O)c1ncc(Cl)c(C(=O)Nc2ccccc2OC)n1	n	x	x	n	n	x
O=C(Nc1nc2ccccc2s1)NC1CCCCC1	n	n	86.2	x	42.5	x
CC(=O)Nc1nc(=O)c2ccccc2s1	n	n	n	n	n	n
O=C(Nc1nnc(-c2ccccc2)s1)c1ccc(F)cc1	n	n	83.7	n	n	n
